The numbers were not newly measured in patent EP4035684A1, “AFFINITY ILLUDOFULVENE CONJUGATES” (AF Chemical LLC, priority 2019, dated 2022), which cites them from elsewhere.

What is called CC50 is the concentration giving 50% cytotoxicity.

The subject of the data set is NCI 60 cell line panel. The settings on record: human, nci 60 cell lines; cited from earlier work.

On to `CC1=C2C(=C[C@@](C)(CO)[C@@H]2O)C(=O)[C@](C)(O)C12CC2` [Illudin S], for which the CC50 is 511 nM.
